pIC50: −log10 of the molar value. Where a name gives a salt, the structure may show the parent alone.
Target: hFIXa (Homo sapiens (Human), UniProt P00740)
Assay: Determination of inhibitory activity against Factor IXa (cleavage of fluorescent peptide CH3SO2-D-CHG-Gly-Arg-AFC)
Format: biochemical

The chains behind the UniProt entries cited, without tags or fusion partners. Residues count along the entry.
UniProt P00740, 227-461: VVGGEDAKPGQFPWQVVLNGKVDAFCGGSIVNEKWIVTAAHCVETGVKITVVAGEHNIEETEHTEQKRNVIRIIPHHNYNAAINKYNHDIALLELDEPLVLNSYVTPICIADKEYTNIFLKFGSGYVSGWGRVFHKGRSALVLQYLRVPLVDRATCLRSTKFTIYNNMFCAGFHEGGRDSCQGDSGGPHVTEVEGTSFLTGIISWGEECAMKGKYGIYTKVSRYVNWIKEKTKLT
UniProt P00740, 47-191 partner: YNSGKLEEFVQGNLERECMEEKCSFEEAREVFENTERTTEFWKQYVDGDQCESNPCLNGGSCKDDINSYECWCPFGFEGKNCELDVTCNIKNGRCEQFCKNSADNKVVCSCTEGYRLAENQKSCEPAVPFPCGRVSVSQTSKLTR

Structure (SMILES) | pIC50
Cc1ccc2c(c1)c(C(N)=O)c1n2C[C@@](NC(=O)c2ccc(-n3cnnc3)cc2)(c2ccccc2)CC1 [Example 127] | 8.58
Cc1ccc2c(c1)c(C(=O)O)c1n2C[C@@](NC(=O)c2ccc(-n3cnnc3)cc2)(c2ccccc2)CC1 [Example 128] | 9.23
Cc1ccc2c(c1)c(C(N)=O)c1n2C[C@@](NC(=O)c2ccc(-n3cnnn3)cc2)(c2ccccc2)CC1 [Example 129] | 7.97
Cc1ccc2c(c1)c(C(=O)O)c1n2C[C@@](NC(=O)c2ccc(-n3cnnc3)cn2)(c2ccccc2)CC1 [Example 130] | 8.60
Cc1ccc2c(c1)c(C)c1n2C[C@@](NC(=O)c2ccc(-n3cnnc3)cc2Cl)(c2ccccc2)CC1 [Example 131, (S)-2-chloro-N-(2,10-dimethyl-7-phenyl-6,7,8,9-tetrahydropyrido[1,2-a]indol-7-yl)-4-(4H-1,2,4-triazol-4-yl)benzamide] | 8.20
Cc1ccc2c(c1)c(C#N)c1n2C[C@@](NC(=O)c2ccc(-n3cnnc3)cc2Cl)(c2ccccc2)CC1 [Example 132] | 8.29
Cc1ccc2c(c1)c(CCC(=O)O)c1n2C[C@@](NC(=O)c2ccc(-n3cnnc3)cc2)(c2ccccc2)CC1 [Example 133] | 8.45
Cc1ccc2c(c1)c(C=O)c1n2C[C@@](NC(=O)c2ccc(-n3cnc(C)n3)cc2Cl)(c2ccccc2)CC1 [Example 136] | 8.23
Cc1ccc2c(c1)c(/C=N/O)c1n2C[C@@](NC(=O)c2ccc(-n3cnnc3)cc2Cl)(c2ccccc2)CC1 [Example 137] | 8.62
Cc1ccc2c(c1)c(C(N)=O)c1n2C[C@@](NC(=O)c2ccc(-n3cnnn3)cc2Cl)(c2ccccc2)CC1 [Example 140] | 8.06
COc1cc(-n2cnc(C)n2)ccc1C(=O)N[C@]1(c2ccccc2)CCc2c(C(=O)O)c3cc(C)ccc3n2C1 [Example 141] | 8.38
COc1cc(-n2cnnc2C)ccc1C(=O)N[C@]1(c2ccccc2)CCc2c(C(=O)O)c3cc(C)ccc3n2C1 [Example 142] | 8.30
Cc1ccc2c(c1)c(C1CC1)c1n2C[C@@](NC(=O)c2ccc(-n3cnnc3C)cc2Cl)(c2ccccc2)CC1 [Example 143] | 8.01
CC(=O)c1c2n(c3ccc(C)cc13)C[C@@](NC(=O)c1ccc(-n3cnc(C)n3)cc1Cl)(c1ccccc1)CC2 [Example 144] | 8.73
Cc1ccc2c(c1)c(/C=N/O)c1n2C[C@@](NC(=O)c2ccc(-n3cnc(C)n3)cc2Cl)(c2ccccc2)CC1 [Example 145] | 8.37
C/C(=N\O)c1c2n(c3ccc(C)cc13)C[C@@](NC(=O)c1ccc(-n3cnnc3)cc1Cl)(c1ccccc1)CC2 [Example 146, (E)-2-chloro-N-(10-(1-(hydroxyimino)ethyl)-2-methyl-7-phenyl-6,7,8,9-tetrahydropyrido[1,2-a]indol-7-yl)-4-(4H-1,2,4-triazol-4-yl)benzamide, TFA] | 8.48
Cc1ccc2c(c1)c(C(N)=O)c1n2C[C@@](NC(=O)c2ccc(-n3cnnc3C)cc2Cl)(c2ccccc2)CC1 [Example 147] | 8.69
Cc1ccc2c(c1)c(C(N)=O)c1n2C[C@@](NC(=O)c2ccc(-n3cnc(C)n3)cc2Cl)(c2ccccc2)CC1 [Example 148] | 8.52
Cc1ccc2c(c1)c(C(=O)O)c1n2C[C@@](NC(=O)c2ccc(-n3cnnc3C)cc2Cl)(c2ccccc2)CC1 [Example 150] | 8.80
Cc1ccc2c(c1)c(CC(=O)O)c1n2C[C@@](NC(=O)c2ccc(-n3cnnc3)cc2Cl)(c2ccccc2)CC1 [Example 151] | 8.54
Cc1ccc2c(c1)c(C=O)c1n2C[C@@](NC(=O)c2c(Cl)cc(-n3cnnc3)cc2Cl)(c2ccccc2)CC1 [Example 153] | 8.79
Cc1ccc2c(c1)c(-c1ncn[nH]1)c1n2C[C@@](NC(=O)c2ccc(-n3cnnc3)cc2Cl)(c2ccccc2)CC1 [Example 154] | 7.83
Cc1ccc2c(c1)c(C(F)(F)F)c1n2C[C@@](NC(=O)c2ccc(-n3cnnc3)cc2Cl)(c2ccccc2)CC1 [Example 155, (S)-2-chloro-N-(2-methyl-7-phenyl-10-(trifluoromethyl)-6,7,8,9-tetrahydropyrido[12]indol-7-yl)-4-(4H-1,2,4-triazol-4-yl)benzamide] | 8.07
Cc1ccc2c(c1)c(-c1nnn[nH]1)c1n2C[C@@](NC(=O)c2ccc(-n3cnnc3)cc2Cl)(c2ccccc2)CC1 [Example 156, (S)-2-chloro-N-(2-methyl-7-phenyl-10-(1H-tetrazol-5-yl)-6,7,8,9-tetrahydropyrido[1,2-a]indol-7-yl)-4-(4H-1,2,4-triazol-4-yl)benzamide, TFA] | 8.62
Cc1ccc2c(c1)c(/C=C/C(N)=O)c1n2C[C@@](NC(=O)c2ccc(-n3cnnc3)cc2Cl)(c2ccccc2)CC1 [Example 157] | 8.69
COc1ncn(-c2ccc(C(=O)N[C@]3(c4ccccc4)CCc4c(C(=O)O)c5cc(C)ccc5n4C3)c(OC)c2)n1 [Example 158] | 8.07
COc1cc(-n2cnn(C)c2=O)ccc1C(=O)N[C@]1(c2ccccc2)CCc2c(C(=O)O)c3cc(C)ccc3n2C1 [Example 159] | 8.22

Structure (SMILES) | pIC50
Cc1ccc2c(c1)c(/C=C/C(=O)O)c1n2C[C@@](NC(=O)c2ccc(-n3cnnc3)cc2Cl)(c2ccccc2)CC1 [Example 160, (S,E)-3-(7-(2-chloro-4-(4H-1,2,4-triazol-4-yl)benzamido)-2-methyl-7-phenyl-6,7,8,9-tetrahydropyrido[1,2-a]indol-10-yl)acrylic acid] | 9.09
Cc1ccc2c(c1)c(CCC(N)=O)c1n2C[C@@](NC(=O)c2ccc(-n3cnnc3)cc2Cl)(c2ccccc2)CC1 [Example 161, (S)—N-(10-(3-amino-3-oxopropyl)-2-methyl-7-phenyl-6,7,8,9-tetrahydropyrido[1,2-a]indol-7-yl)-2-chloro-4-(4H-1,2,4-triazol-4-yl)benzamide 2,2,2-trifluoroacetate] | 7.72
C/C(=N\O)c1c2n(c3ccc(C)cc13)C[C@@](NC(=O)c1ccc(-n3cnc(C)n3)cc1Cl)(c1ccccc1)CC2 [Example 162] | 8.39
Cc1ccc2c(c1)c(C(N)=O)c1n2C[C@@](NC(=O)c2c(C)cc(-n3cnc(C)n3)cc2Cl)(c2ccccc2)CC1 [Example 163] | 8.59
COC(=O)c1c2n(c3ccc(C)cc13)C[C@@](NC(=O)c1ccc(-n3cnc(C)n3)cc1Cl)(c1ccccc1)CC2 [Example 165] | 8.16
Cc1ccc2c(c1)c(CC(=O)O)c1n2C[C@@](NC(=O)c2ccc(-n3cnc(C)n3)cc2Cl)(c2ccccc2)CC1 [Example 166] | 8.33
Cc1ccc2c(c1)c(C(N)C(=O)O)c1n2C[C@@](NC(=O)c2ccc(-n3cnnc3)cc2Cl)(c2ccccc2)CC1 (stereo partly drawn) [Example 167, 2-amino-2-((S)-7-(2-chloro-4-(4H-1,2,4-triazol-4-yl)benzamido)-2-methyl-7-phenyl-6,7,8,9-tetrahydropyrido[1,2-a]indol-10-yl)acetic acid] | 7.80
COc1ncn(-c2ccc(C(=O)N[C@]3(c4ccccc4)CCc4c(C(=O)O)c5cc(C)ccc5n4C3)c(Cl)c2)n1 [Example 168] | 9.20
Cc1ccc2c(c1)c(C(=O)O)c1n2C[C@@](NC(=O)c2ccc(-n3cnn(C)c3=O)cc2Cl)(c2ccccc2)CC1 [Example 169, (S)-3-(7-(2-chloro-4-(4H-1,2,4-triazol-4-yl)benzamido)-2-methyl-7-phenyl-6,7,8,9-tetrahydropyrido[1,2-a]indol-10-yl)propanoic acid] | 8.77
COC(=O)c1c2n(c3ccc(C)cc13)C[C@@](NC(=O)c1ccc(-n3cnnc3)cc1Cl)(c1cccc(F)c1)CC2 [Example 170] | 8.34
Cc1ccc2c(c1)c(C(=O)O)c1n2C[C@@](NC(=O)c2ccc(-n3cnc(C)n3)cc2Cl)(c2cccc(F)c2)CC1 [Example 171] | 9.10
Cc1ccc2c(c1)c(-c1cccnc1)c1n2C[C@@](NC(=O)c2ccc(-n3cnnc3)cc2Cl)(c2ccccc2)CC1 [Example 172, 2-chloro-N-[(7S)-2-methyl-7-phenyl-10-pyridin-3-yl-6,7,8,9-tetrahydropyrido[1,2-a]indol-7-yl]-4-(4H-1,2,4-triazol-4-yl)benzamide] | 8.37
Cc1ccc2c(c1)c(C(=O)C(F)F)c1n2C[C@@](NC(=O)c2ccc(-n3cnnc3)cc2Cl)(c2ccccc2)CC1 [Example 175] | 8.70
Cc1ccc2c(c1)c(-c1cncnc1)c1n2C[C@@](NC(=O)c2ccc(-n3cnnc3)cc2Cl)(c2ccccc2)CC1 [Example 176] | 8.20
Cc1ccc2c(c1)c(S(C)(=O)=O)c1n2C[C@@](NC(=O)c2ccc(-n3cnnc3)cc2Cl)(c2ccccc2)CC1 [Example 177] | 7.74
Cc1ccc2c(c1)c(-c1noc(C)n1)c1n2C[C@@](NC(=O)c2ccc(-n3cnnc3)cc2Cl)(c2ccccc2)CC1 [Example 178] | 8.43
Cc1ccc2c(c1)c(-c1nnn[nH]1)c1n2C[C@@](NC(=O)c2ccc(-n3cnc(C)n3)cc2Cl)(c2ccccc2)CC1 [Example 179] | 8.37
Cc1ccc2c(c1)c(C(N)=O)c1n2C[C@@](NC(=O)c2ccc(-c3ccc(=O)n(C)c3)cc2Cl)(c2ccccc2)CC1 [Example 180] | 8.50
COC(=O)/C=C/c1c2n(c3ccc(C)cc13)C[C@@](NC(=O)c1ccc(-n3cnnc3)cc1Cl)(c1ccccc1)CC2 [Example 181] | 8.44
Cc1ccc2c(c1)c(/C=C/C(=O)O)c1n2C[C@@](NC(=O)c2ccc(-n3cnc(C)n3)cc2Cl)(c2ccccc2)CC1 [Example 182] | 8.93
COC(=O)Cc1c2n(c3ccc(C)cc13)C[C@@](NC(=O)c1ccc(-n3cnc(C)n3)cc1Cl)(c1ccccc1)CC2 [Example 184] | 8.33
COC(=O)CCc1c2n(c3ccc(C)cc13)C[C@@](NC(=O)c1ccc(-n3cnnc3)cc1Cl)(c1ccccc1)CC2 [Example 185] | 7.72
COC(=O)c1c2n(c3ccc(C)cc13)C[C@@](NC(=O)c1ccc(-n3cnn(C)c3=O)cc1Cl)(c1ccccc1)CC2 [Example 186] | 8.15
Cc1ccc2c(c1)c(-c1cccnc1)c1n2C[C@@](NC(=O)c2ccc(-n3cnnc3C)cc2Cl)(c2ccccc2)CC1 [Example 187] | 8.45
Cc1ccc2c(c1)c(C(=O)O)c1n2C[C@@](NC(=O)c2ccc(-n3cnn(C)c3=O)cc2Cl)(c2cccc(F)c2)CC1 [Example 188] | 9.29
Cc1ccc2c(c1)c(-c1cncc(N)c1)c1n2C[C@@](NC(=O)c2ccc(-n3cnnc3)cc2Cl)(c2ccccc2)CC1 [Example 189] | 8.80
